Laboratory results taken from patent US10220090B2, “BCMA Antigen binding proteins” (Amgen Inc., priority 2012, dated 2019).

Protein sequences, listed by entry. Tags and fused reporters are not part of them. Residues count along the entry.
UniProt Q12306, 1-98 limits assumed: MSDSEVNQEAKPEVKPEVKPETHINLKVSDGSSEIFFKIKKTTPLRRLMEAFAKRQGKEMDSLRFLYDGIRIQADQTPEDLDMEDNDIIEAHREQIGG

Experiments:
human BCMA = target: T1, human BCMA (Homo sapiens, UniProt Q02223, N81S); assay: FACS binding on cells transiently transfected to express full length BCMA
T1 construct: expressed in transfected cells
T1 sequence (Q02223 1-184 N81S): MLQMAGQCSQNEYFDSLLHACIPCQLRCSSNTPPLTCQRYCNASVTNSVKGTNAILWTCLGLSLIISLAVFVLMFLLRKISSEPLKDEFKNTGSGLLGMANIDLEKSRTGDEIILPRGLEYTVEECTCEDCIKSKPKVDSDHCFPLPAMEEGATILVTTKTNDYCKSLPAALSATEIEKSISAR
Procedure: An important criterion is exquisite selectivity for wild-type human BCMA expressed on the surface of cells. FACS binding on cells transiently transfected to express full length BCMA, TACI, or BAFF-R was performed using standard techniques. Approximately 40×10^6 of the transiently-transfected target cells were resuspended in a staining solution (2% goat serum, 1% rabbit serum, 0.02% azide in PBS) and aliquoted into round-bottom, 96-well plate (Corning Incorp., Acton, Mass.) as per the experiment design. The cells were incubated at 4 degrees celsius for 30 minutes to block non-specific sites. The antibodies were titrated into the staining solution. The cells were rinsed in a rinse solution (PBS+0.02% azide) by resuspending the cells in 200 ul/well. The cells were centrifuged at 1500 rpm at 4 degrees celsius for 7 minutes. The rinse solution was removed and the rinse step was repeated. The cells were resuspended in the appropriate antibody solution (see the matrix in TABLE 4) at 30 ul/well and incubated at 4 degrees celsius for 30 minutes. […] For the mouse IgG1 negative control and the two mouse antibodies (1.183 and 1.288), the secondary reagent was an anti-mouse IgG-PE conjugate (BD Pharmingen Cat. 550589). The cells/antibodies were rinsed as described above to remove excess/unbound antibody. […] Samples were read at 532 nm wavelength on FACS. […]

[1] = Differential Scanning Calorimetry (DSC) thermostability; format: physicochemical; details: Fab region
Description: Differential Scanning calorimetry (DSC) was used to compare the thermostability of parent and engineered antibodies. DSC is a thermodynamical tool for direct assessment of the heat energy uptake, which occurs in a sample within a regulated increase or decrease in temperature. DSC is commonly employed to assess the thermal and conformational stability of a protein. The melting temperature of a protein, or of individual domains, can be obtained from the DSC profile, and if the reaction is reversible the thermodynamic parameters of the unfolding can be determined. A protein is considered more thermostable when the Tm (transition temperature) is higher. When thermostability data are compared to other bioanalytical methods, like size exclusion chromatography (SEC), it has been observed that a correlation between greater thermostability (higher Tm) and decreased aggregation. Antibodies with a higher Tm and decreased aggregation formation have the potential for improved long-term stability thus potentially making better biotherapeutics.
DSC was carried out using a MicroCal™ VP-Capillary DSC system (GE Healthcare, Piscataway, N.J.) equipped with an auto-sampler. The temperature differences between the reference and sample cells are continuously measured, and calibrated to power units. For example, the full-length antibodies shown in TABLE 10 were diluted to 0.5 mg/mL in a buffered solution. The solution reference and protein samples were measured in a 135 μL cell from 20 to 110° C. at a heating rate of 60° C./hour. The pre-scan was set at 15 minutes while the filtering period was 10 seconds. Signal from the blank buffer solution was used for baseline subtraction. The data analysis was performed using MicroCal™ Origin 7 software. Heat capacity during protein melting was calculated by normalizing over protein concentration.

[2] = target: T2, BCMA on H929, RPMI 8226, OPM2, MM1S, U266, MM1R, RAMOS and EW36 cells (Homo sapiens, UniProt Q02223, N81S); assay: FACS binding of Dy649-conjugated antibody to myeloma and B-cell lines
T2 construct: endogenous in cells; host or cells: H929, RPMI 8226, OPM2, MM1S, U266, MM1R, RAMOS, EW36
T2 sequence (Q02223 1-184 N81S): T1 sequence (Q02223 1-184 N81S)
Procedure: Approximately 10 to 40×10^6 of cells were resuspended in a staining solution (2% goat serum, 1% rabbit serum, 0.02% azide in PBS) and aliquoted into round-bottom, 96-well plate (Corning Incorp., Acton, Mass.) as per the experiment design. The cells were incubated at 4 degrees celsius for 30 minutes to block non-specific sites. The antibodies were titrated into the staining solution. The cells were rinsed in a rinse solution (PBS+0.02% azide) by resuspending the cells in 200 ul/well. The cells were centrifuged at 1500 rpm at 4 degrees celsius for 7 minutes. The rinse solution was removed and the rinse step was repeated. […] The cells/antibodies were rinsed as described above to remove excess/unbound antibody. After the last rinse, the cells were resuspended in 200 ul of rinse solution with a drop of staining solution added to keep the cells from aggregating.

[3] = target: T3, Sumo (cleaved from SumoBCMA) (Saccharomyces cerevisiae, UniProt Q12306); assay: Size exclusion chromatography control with Sumo; format: binding; details: SEC control
T3 construct: 6xHis (N)
Procedure: A Superdex 200™ 10/30 cm SEC column (GE Healthcare Life Sciences) was used according to the manufacturer's recommended condision and run in phosphate buffered saline (PBS). Incubations of antibody with excess levels of sumoBCMA were performed at room temperature for at least 30 minutes.

B1: Ab-5: parental fully human anti-huBCMA mAb 2A1, Vh SEQ ID NO:214, Vl 248; heavy chain SEQ ID NO:287, light chain 288 (antibody)
heavy: EVQLVESGGGLVKPGRSLRLSCTASGFTFGDYALSWFRQAPGKGLEWVGVSRSKAYGGTTDYAASVKGRFTISRDDSKSFAYLQMNSLKTEDTAVYYCCSSGYSSGWTPFDYWGQGTLVTVSSASTKGPSVFPLAPSSKSTSGGTAALGCLVKDYFPEPVTVSWNSGALTSGVHTFPAVLQSSGLYSLSSVVTVPSSSLGTQTYICNVNHKPSNTKVDKKV[omitted - human IgG1 Fc]
light: QSVLTQPPSASGTPGQRVTISCSGSSSNIGSNTVNWYQQLPGTAPKLLIFNYHQRPSGVPDRFSGSKSGSSASLAISGLQSEDEADYYCAAWDDSLNGWVFGGGTELTVLGQPKAAPSVTLFPPSSEELQANKATLVCLISDFYPGAVTVAWKADSSPVKAGVETTTPSKQSNNKYAASSYLSLTPEQWKSHRSYSCQVTHEGSTVEKTVAPTECS
For B1, the “BCMA (FACS binding)” value (human BCMA) was “+ (A sample was considered positive for binding if the MFI was two times the negative control value)”, the “Tm Fab” value [1] was 66 °C and the “binding to myeloma cell lines and B-cell lines” value [2] was “bound to all myeloma cell lines and B-cell lines”. For the same molecule, the “binding to the RAMOS B-cell line” value ([2]; RAMOS) was “comparatively low” and the “binding to Sumo” value [3] was “did not bind to Sumo”.
